# Only a part of the results on these compounds is given; other tests are left out.
# Assay: In vitro dissolution of naltrexone or fentanyl coaxial PCL implants
# Conditions: 10 wt % fentanyl base in the core, PCL membrane; as concentration in the core falls below saturation; FIG. 4
compound,measurement,value
CCC(=O)N(c1ccccc1)C1CCN(CCc2ccccc2)CC1,release kinetics of fentanyl from coaxial implants,becomes first order

# Reference: US8263108B2, “Zero-order prolonged release coaxial implants” (Durect Corporation, priority 2001, dated 2012)
